Patent publication US10086000B2, “Tricyclic compounds as inhibitors of mutant IDH enzymes” (Merck Sharp & Dohme Corp., priority 2014, dated 2018)

Chains of the proteins cited; added tags and fusions are not shown.
UniProt O75874, whole entry R132H: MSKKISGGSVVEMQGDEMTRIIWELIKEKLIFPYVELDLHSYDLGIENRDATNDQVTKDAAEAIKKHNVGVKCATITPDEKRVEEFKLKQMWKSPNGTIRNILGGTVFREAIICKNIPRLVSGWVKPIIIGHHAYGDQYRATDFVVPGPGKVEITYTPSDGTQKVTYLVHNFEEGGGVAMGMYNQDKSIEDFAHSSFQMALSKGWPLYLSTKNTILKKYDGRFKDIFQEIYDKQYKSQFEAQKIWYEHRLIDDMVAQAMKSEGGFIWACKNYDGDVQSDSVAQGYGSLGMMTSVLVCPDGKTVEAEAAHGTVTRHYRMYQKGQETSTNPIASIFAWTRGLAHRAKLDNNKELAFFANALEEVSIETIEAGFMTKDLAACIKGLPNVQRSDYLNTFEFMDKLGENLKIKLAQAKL

biological target: R132H mutant IDH1 enzyme (Homo sapiens (Human), UniProt O75874, R132H); test: R132H IDH1 Enzymatic Assay; assay type: biochemical; conditions: R132H mutant IDH1 enzyme 1.5 nM final; luminescence (Kinase-GLO) readout

Row | Compound | IC50 [nM]
1 | O=C(C1CC12CCCCC2)N1Cc2cccnc2Nc2ccccc21 (stereo not shown) [Example 4, 6-(spiro[2.5]oct-1-ylcarbonyl)-6,11-dihydro-5H-pyrido[2,3-b][1,5]benzodiazepine] | 7680
2 | N#CC12C=CC(C(=O)N3Cc4cccnc4Nc4ccccc43)(CC1)CC2 [Example 26, 4-(5,11-dihydro-6H-pyrido[2,3-b][1,5]benzodiazepin-6-ylcarbonyl)bicyclo[2.2.2]oct-2-ene-1-carbonitrile] | 860
3 | O=C(N1CC(F)C1)C12CCC(C(=O)N3Cc4cccnc4Nc4ccccc43)(CC1)CC2 [Example 92, 6-({4-[(3-fluoroazetidin-1-yl)carbonyl]bicyclo[2.2.2]oct-1-yl}carbonyl)-6,11-dihydro-5H-pyrido[2,3-b][1,5]benzodiazepine] | 4520
4 | O=C([C@H]1C[C@@H]2[C@H](C1)C2(F)F)N1Cc2cccnc2Nc2ccc(N3CCOCC3)cc21 [Example 19, 6-{[(1R,3r,5S)-6,6-difluorobicyclo[3.1.0]hex-3-yl]carbonyl}-8-morpholin-4-yl-6,11-dihydro-5H-pyrido[2,3-b][1,5]benzodiazepine] | 148
5 | O=C(C1C[C@H]2C[C@@H]1CCC2O)N1Cc2cccnc2Nc2ccccc21 (stereo partly drawn) [Example 15, (1R,5S)-6-(5,11-dihydro-6H-pyrido[2,3-b][1,5]benzodiazepin-6-ylcarbonyl)bicyclo[3.2.1]octan-2-ol] | 26400
6 | O=C(C1CC12CCCC2)N1Cc2cccnc2Nc2ccccc21 (stereo not shown) [Example 5, 6-(spiro[2.4]hept-1-ylcarbonyl)-6,11-dihydro-5H-pyrido[2,3-b][1,5]benzodiazepine] | 8480
7 | COC1CC2CCC1CC2C(=O)N1Cc2cccnc2Nc2ccc(N3CCOCC3)cc21 (stereo not shown) [Example 59, 6-[(5-methoxybicyclo[2.2.2]oct-2-yl)carbonyl]-8-morpholin-4-yl-6,11-dihydro-5H-pyrido[2,3-b][1,5]benzodiazepine] | 14200
8 | O=C([C@H]1COc2ccccc2O1)N1Cc2cccnc2Nc2ccc(C3CCOCC3)cc21 [Example 105, (R)-(2,3-Dihydrobenzo[b][1,4]dioxin-2-yl)(8-(tetrahydro-2H-pyran-4-yl)-5,11-dihydro-6H-benzo[b]pyrido[2,3-e][1,4]diazepin-6-yl)methanone] | 36
9 | CO[C@H]1C2CC3CC1C[C@](C(=O)N1Cc4cccnc4Nc4ccc(N5CCOCC5)cc41)(C3)C2 [Example 57, 6-{[(1r,4s)-4-methoxytricyclo[3.3.1.1~3,7~]dec-1-yl]carbonyl}-8-morpholin-4-yl-6,11-dihydro-5H-pyrido[2,3-b][1,5]benzodiazepine] | 424
10 | O=C(C1COc2ccccc2C1)N1Cc2cccnc2Nc2ccc(N3CCOCC3)cc21 (stereo not shown) [Example 97, 6-(3,4-dihydro-2H-chromen-3-ylcarbonyl)-8-morpholin-4-yl-6,11-dihydro-5H-pyrido[2,3-b][1,5]benzodiazepine] | 141
11 | O=C(C1CC2C(C1)C2(F)F)N1Cc2cccnc2Nc2ccc(N3CCOCC3)cc21 (stereo not shown) [Example 18, 6-[(6,6-difluorobicyclo[3.1.0]hex-3-yl)carbonyl]-8-morpholin-4-yl-6,11-dihydro-5H-pyrido[2,3-b][1,5]benzodiazepine] | 218
12 | CC1(C(=O)N2Cc3cccnc3Nc3ccccc32)CCc2ccccc2C1 (stereo not shown) [Example 23, 6-[(2-methyl-1,2,3,4-tetrahydronaphthalen-2-yl)carbonyl]-6,11-dihydro-5H-pyrido[2,3-b][1,5]benzodiazepine] | 611
13 | CC(=O)C12C=CC(C(=O)N3Cc4cccnc4Nc4ccccc43)(CC1)CC2 [Example 27, 1-[4-(5,11-dihydro-6H-pyrido[2,3-b][1,5]benzodiazepin-6-ylcarbonyl)bicyclo[2.2.2]oct-2-en-1-yl]ethanone] | 1440
14 | CC1CN(C(=O)C23CCC(C(=O)N4Cc5cccnc5Nc5ccccc54)(CC2)CC3)C1 [Example 89, 6-({4-[(3-Methylazetidin-1-yl)carbonyl]bicyclo[2.2.2]oct-1-yl}carbonyl)-6,11-dihydro-5H-pyrido[2,3-b][1,5]benzodiazepine] | 4200
15 | O=C(C1COc2ccccc2O1)N1Cc2cccnc2Nc2ccc(N3CCOCC3)cc21 (stereo not shown) [Example 40, 6-(2,3-dihydro-1,4-benzodioxin-2-ylcarbonyl)-8-morpholin-4-yl-6,11-dihydro-5H-pyrido[2,3-b][1,5]benzodiazepine] | 171
16 | COC1CC2CCC1CC2C(=O)N1Cc2cccnc2Nc2ccc(N3CCOCC3)cc21 (stereo not shown) [Example 60, 6-[(5-methoxybicyclo[2.2.2]oct-2-yl)carbonyl]-8-morpholin-4-yl-6,11-dihydro-5H-pyrido[2,3-b][1,5]benzodiazepine] | 1460
17 | O=C([C@@H]1COc2ccccc2O1)N1Cc2cccnc2Nc2ccc(N3CCOCC3)cc21 [Example 43, 6-[(2S)-2,3-dihydro-1,4-benzodioxin-2-ylcarbonyl]-8-morpholin-4-yl-6,11-dihydro-5H-pyrido[2,3-b][1,5]benzodiazepine] | 626
18 | O=C([C@H]1CC[C@@H]2OCCC[C@@H]2C1)N1Cc2cccnc2Nc2ccc(N3CCOCC3)cc21 (racemic) [Example 38, 8-morpholin-4-yl-6-[(4aR,6S,8aS)-octahydro-2H-chromen-6-ylcarbonyl]-6,11-dihydro-5H-pyrido[2,3-b][1,5]benzodiazepine] | 393
19 | CO[C@H]1C2CC3CC1C[C@@](C(=O)N1Cc4cccnc4Nc4ccc(N5CCOCC5)cc41)(C3)C2 [Example 58, 6-{[(1s,4r)-4-methoxytricyclo[3.3.1.1~3,7~]dec-1-yl]carbonyl}-8-morpholin-4-yl-6,11-dihydro-5H-pyrido[2,3-b][1,5]benzodiazepine] | 9930
20 | O=C(N1Cc2cccnc2Nc2ccccc21)C12CCCC(C1)C2 [Example 29, 6-(bicyclo[3.1.1]hept-1-ylcarbonyl)-6,11-dihydro-5H-pyrido[2,3-b][1,5]benzodiazepine] | 1050

Now from value to compound:

Row | IC50 [nM] | Compound
21 | 700 | O=C([C@@H]1CC[C@H]2CCC[C@H]21)N1Cc2cccnc2Nc2ccc(N3CCOCC3)cc21 [Example 73, 8-morpholin-4-yl-6-[(1R,3aR,6aR)-octahydropentalen-1-ylcarbonyl]-6,11-dihydro-5H-pyrido[2,3-b][1,5]benzodiazepine]
22 | 22600 | O=C(C1CCCc2ncccc2C1)N1Cc2cccnc2Nc2ccccc21 (single isomer, unassigned) [Example 112, 6-(6,7,8,9-Tetrahydro-5H-cyclohepta[b]pyridin-6-ylcarbonyl)-6,11-dihydro-5H-pyrido[2,3-b][1,5]benzodiazepine]
23 | 160 | Cn1ccc(-c2ccc3c(c2)N(C(=O)[C@H]2COc4ccccc4O2)Cc2cccnc2N3)n1 [Example 109, 6-[(2R)-2,3-dihydro-1,4-benzodioxin-2-ylcarbonyl]-8-(1-methyl-1H-pyrazol-3-yl)-6,11-dihydro-5H-pyrido[2,3-b][1,5]benzodiazepine]
24 | 3 | CC(C)(C#N)c1ccc2c(c1)N(C(=O)C1CCc3ccccc3CC1)Cc1cccnc1N2 [Example 3, 2-Methyl-2-[6-(6,7,8,9-tetrahydro-5H-benzo[7]annulen-7-ylcarbonyl)-6,11-dihydro-5H-pyrido[2,3-b][1,5]benzodiazepin-8-yl]propanenitrile]
25 | 2170 | COC(=O)C12CCC(C(=O)N3Cc4cccnc4Nc4ccccc43)(CC1)CC2 [Example 22, methyl 4-(5,11-dihydro-6H-pyrido[2,3-b][1,5]benzodiazepin-6-ylcarbonyl)bicyclo[2.2.2]octane-1-carboxylate]
26 | 176 | CC(C)(C)c1ccc2c(c1)OCC(C(=O)N1Cc3cccnc3Nc3ccc(N4CCOCC4)cc31)O2 (stereo not shown) [Example 80, 6-[(6-tert-butyl-2,3-dihydro-1,4-benzodioxin-2-yl)carbonyl]-8-morpholin-4-yl-6,11-dihydro-5H-pyrido[2,3-b][1,5]benzodiazepine]
27 | 9 | O=C(C1CCc2ccccc2CC1)N1Cc2cccnc2Nc2ccc(N3CCOCC3)nc21 [Example 118, 2-Morpholin-4-yl-11-(6,7,8,9-tetrahydro-5H-benzo[7]annulen-7-ylcarbonyl)-10,11-dihydro-5H-dipyrido[2,3-b:2′,3′-e][1,4]diazepine]
28 | 2360 | O=C([C@H]1CC[C@H]2OCC[C@H]2C1)N1Cc2cccnc2Nc2ccc(N3CCOCC3)cc21 [Example 37, 8-morpholin-4-yl-6-[(3aR,5S,7aR)-octahydro-1-benzofuran-5-ylcarbonyl]-6,11-dihydro-5H-pyrido[2,3-b][1,5]benzodiazepine]
29 | 12200 | O=C(N1CCC1)C12CCC(C(=O)N3Cc4cccnc4Nc4ccccc43)(CC1)CC2 [Example 93, 6-{[4-(azetidin-1-ylcarbonyl)bicyclo[2.2.2]oct-1-yl]carbonyl}-6,11-dihydro-5H-pyrido[2,3-b][1,5]benzodiazepine]
30 | 4 | O=C1OCCN1c1ccc2c(c1)N(C(=O)C1CCc3ccccc3CC1)Cc1cccnc1N2 [Example 124, 3-[6-(6,7,8,9-Tetrahydro-5H-benzo[7]annulen-7-ylcarbonyl)-6,11-dihydro-5H-pyrido[2,3-b][1,5]benzodiazepin-8-yl]-1,3-oxazolidin-2-one]
31 | 894 | O=C(C1CCc2cccnc2CC1)N1Cc2cccnc2Nc2ccccc21 (single isomer, unassigned) [Example 114, 6-(6,7,8,9-Tetrahydro-5H-cyclohepta[b]pyridin-7-ylcarbonyl)-6,11-dihydro-5H-pyrido[2,3-b][1,5]benzodiazepine]
32 | 440 | O=C(C1CCc2ccccc2C1)N1Cc2cccnc2Nc2ccccc21 (stereo not shown) [Example 21, 6-(1,2,3,4-tetrahydronaphthalen-2-ylcarbonyl)-6,11-dihydro-5H-pyrido[2,3-b][1,5]benzodiazepine]
33 | 5 | Cn1nccc1-c1ccc2c(c1)N(C(=O)C1CCc3ccccc3CC1)Cc1cccnc1N2 [Example 101, 8-(1-methyl-1H-pyrazol-5-yl)-6-(6,7,8,9-tetrahydro-5H-benzo[7]annulen-7-ylcarbonyl)-6,11-dihydro-5H-pyrido[2,3-b][1,5]benzodiazepine]
34 | 1870 | O=C(N1Cc2cccnc2Nc2ccccc21)C12CCC(c3nc(C(F)(F)F)no3)(CC1)CC2 [Example 111, 6-({4-[3-(Trifluoromethyl)-1,2,4-oxadiazol-5-yl]bicyclo[2.2.2]oct-1-yl}carbonyl)-6,11-dihydro-5H-pyrido[2,3-b][1,5]benzodiazepine]
